Test results taken from PubChem BioAssay (Tox21).
The list shows a part of the results, in another mix than the full data. Inconclusive results are not listed. The source made the active and inactive calls. Unless noted, the call rests on the fitted dose curve; in most records, active means well fitted curve in the direction sought with a large enough effect in the repeat runs; inconclusive means weak or mixed curves; inactive means no such curve, though single readings can be large; an effect the other way counts as inactive or inconclusive.

Protein sequences, listed by entry. Tags and fused reporters are not part of them.
UniProt P37231, whole entry: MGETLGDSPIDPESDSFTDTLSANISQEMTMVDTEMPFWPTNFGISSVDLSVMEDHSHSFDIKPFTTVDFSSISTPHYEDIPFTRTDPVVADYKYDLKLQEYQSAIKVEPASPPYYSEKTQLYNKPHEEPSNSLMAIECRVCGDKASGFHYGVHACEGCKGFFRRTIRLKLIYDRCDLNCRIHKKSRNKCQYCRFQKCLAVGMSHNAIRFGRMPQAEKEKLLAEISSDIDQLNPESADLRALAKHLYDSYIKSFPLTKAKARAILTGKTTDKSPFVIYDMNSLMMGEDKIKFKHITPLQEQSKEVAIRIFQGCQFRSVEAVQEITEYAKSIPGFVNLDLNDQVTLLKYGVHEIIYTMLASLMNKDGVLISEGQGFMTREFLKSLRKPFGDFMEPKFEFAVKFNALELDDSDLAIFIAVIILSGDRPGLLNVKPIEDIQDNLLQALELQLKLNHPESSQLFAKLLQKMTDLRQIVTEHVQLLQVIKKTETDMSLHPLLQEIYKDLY
UniProt Q03181, whole entry: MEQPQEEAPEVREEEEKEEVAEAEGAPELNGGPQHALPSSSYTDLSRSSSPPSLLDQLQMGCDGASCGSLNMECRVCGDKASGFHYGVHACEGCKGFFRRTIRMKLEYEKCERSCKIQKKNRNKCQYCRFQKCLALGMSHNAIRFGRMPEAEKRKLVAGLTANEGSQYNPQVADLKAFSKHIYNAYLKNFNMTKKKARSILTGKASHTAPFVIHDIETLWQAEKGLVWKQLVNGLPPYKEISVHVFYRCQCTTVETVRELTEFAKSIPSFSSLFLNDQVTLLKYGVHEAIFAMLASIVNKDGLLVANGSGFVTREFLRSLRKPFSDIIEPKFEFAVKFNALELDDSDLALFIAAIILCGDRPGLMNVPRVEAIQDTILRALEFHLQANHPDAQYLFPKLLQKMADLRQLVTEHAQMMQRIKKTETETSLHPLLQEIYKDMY

Legend:
[1] = qHTS assay to identify small molecule that activate the aryl hydrocarbon receptor (AhR) signaling pathway - cell viability counter screen (AID 743086); conditions: HepG2-AhR-luc viability, CellTiter-Fluor, 24 h; at 70.3 µM (top of the series);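 further: HepG2 liver cells carrying the AhR DRE luciferase reporter; nearly all actives have a fitted effect of over 45% in size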
From the text: U.S. Tox21 Program National Center for Advancing Translational Sciences [NCATS] NIH Chemical Genomics Center [NCGC] U.S. Environmental Protection Agency [EPA] National Institutes of Environmental Health Sciences [NIEHS] National Toxicology Program [NTP] U.S. Food and Drug Administration [FDA] Tox21 Assay overview: The Aryl hydrocarbon Receptor (AhR), a member of the family of basic helix-loop-helix transcription factors, is crucial to adaptive responses to environmental changes. AhR mediates cellular responses to environmental pollutants such as aromatic hydrocarbons through induction of phase I and II enzymes but also interacts with other nuclear receptor signaling pathways A cell based HepG2-AhR-luc assay (HG2L7.5c1 cell line, developed by Dr. Michael S. Denison, University of California at Davis) was used to assess the activation of AhR. HepG2 (human hepatocellular carcinoma) cells were stably transfected with an Ah receptor-responsive firefly luciferase reporter gene plasmid containing 20 dioxin responsive elements and luciferase reporter gene. Increased luciferase activity can be used to identify the compounds that induce AhR activation. The cytotoxicity of the compounds screened against the HepG2-AhR-luc cell line was tested in parallel by measuring the cell viability using CellTiter-Fluor assay in the same wells.
Tox21 Assay Protocol Summary: 4000 cells in 5 uL/well were dispensed into white wall/solid bottom 1536-well plates using a Multidrop Combi (Thermo Fisher Scientific Inc., Waltham, MA) dispenser. After the assay plates were incubated at 37C for 5 h, 23 nL of compound or DMSO vehicle was transferred to the assay plates by a pintool station (Kalypsys, San Diego, CA). […] The fluorescence intensity in the plates was measured using a ViewLux plate reader (PerkinElmer, Shelton, CT), followed by the addition of 4 uL of ONE-Glo Luciferase Assay reagent (Promega) using an FRD (Aurora Discovery). After the assay plates were incubated at room temperature for 30 min, luminescence intensity was measured using a ViewLux plate reader (Perkin Elmer).

[2] = target: Peroxisome proliferator-activated receptor gamma (Homo sapiens) (UniProt P37231); test: qHTS assay to identify small molecule agonists of the peroxisome proliferator-activated receptor gamma (PPARg) signaling pathway (AID 743094; active means well fitted activation curve with a large enough effect in the signal ratio in the repeat runs, not every such curve was filed as active; the % refers to the signal ratio); conditions: HEK293H PPARg-UAS-bla, beta-lactamase FRET ratio, 17 h; at 57 µM (top of the series)
Outline: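 GeneBLAzer PPARg UAS-bla HEK293H cells carrying a stably integrated beta-lactamase reporter were pre-incubated 5 h at 37C, then exposed to compounds in DMSO for 17 h at 37C; LiveBLAzer B/G FRET substrate was added for 1 h at room temperature and fluorescence read.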

[3] = target: Peroxisome proliferator-activated receptor gamma (Homo sapiens) (UniProt P37231); test: qHTS assay to identify small molecule antagonists of the peroxisome proliferator-activated receptor gamma (PPARg) signaling pathway (AID 743191; calls by dose curve; further: nearly all actives have a fitted effect of over 30% in size); conditions: HEK293H PPARg-UAS-bla, beta-lactamase ratio, antagonist, 17 h; at 81.1 µM (top of the series)
From the text: U.S. Tox21 Program National Center for Advancing Translational Sciences [NCATS] NIH Chemical Genomics Center [NCGC] U.S. Environmental Protection Agency [EPA] National Institutes of Environmental Health Sciences [NIEHS] National Toxicology Program [NTP] U.S. Food and Drug Administration [FDA] Tox21 Assay Overview: The peroxisome proliferator-activated receptors (PPARs) are lipid-activated transcription factors of the nuclear receptor superfamily with three distinct subtypes namely PPAR alpha, PPAR delta (also called PPAR beta) and PPAR gamma (PPARg). All these subtypes heterodimerize with Retinoid X receptor (RXR) and these heterodimers regulate transcription of various genes. PPAR-gamma receptor (glitazone receptor) is involved in the regulation of glucose and lipid metabolism. […]
Tox21 Assay Protocol Summary: PPARg-bla cells were dispensed at 3000 cells/6uL/well in 1536-well black wall/clear bottom plates using a Multidrop Combi (Thermo Fisher Scientific, Waltham, MA) dispenser. […] After 1 uL of LiveBLAzerTM B/G FRET substrate was added using a Bioraptr Flying Reagent Dispenser (FRD) workstation (Beckman Coulter, Indianapolis, IN, USA), the plates were incubated at room temperature for 1 h, and fluorescence intensity was measured by an Envision plate reader (PerkinElmer, Shelton, CT).

[4] = qHTS assay to identify small molecule antagonists of the peroxisome proliferator-activated receptor gamma (PPARg) signaling pathway - cell viability counter screen (AID 743194); conditions: PPARg-bla HEK293H viability, CellTiter-Glo luminescence, 17 h, co-treated with 50 nM rosiglitazone; at 81.1 µM (top of the series) unless noted; further: nearly all actives have a fitted effect of over 55% in size
From the text: U.S. Tox21 Program National Center for Advancing Translational Sciences [NCATS] NIH Chemical Genomics Center [NCGC] U.S. Environmental Protection Agency [EPA] National Institutes of Environmental Health Sciences [NIEHS] National Toxicology Program [NTP] U.S. Food and Drug Administration [FDA] Tox21 Assay Overview: The peroxisome proliferator-activated receptors (PPARs) are lipid-activated transcription factors of the nuclear receptor superfamily with three distinct subtypes namely PPAR alpha, PPAR delta (also called PPAR beta) and PPAR gamma (PPARg). All these subtypes heterodimerize with Retinoid X receptor (RXR) and these heterodimers regulate transcription of various genes. PPAR-gamma receptor (glitazone receptor) is involved in the regulation of glucose and lipid metabolism. To identify the compounds that activate PPAR-gamma signaling, GeneBLAzer PPAR gamma UAS-bla HEK293H cell line (Invitrogen, Carlsbad, CA, USA) containing a beta-lactamase reporter gene under the control of an Upstream Activator Sequence (UAS) was used to screen the Tox21 compound library. The cytotoxicity of the Tox21 compound library against the PPARg-bla cell line was tested in parallel by measuring the cell viability using CellTiter-Glo assay in the same wells.
Tox21 Assay Protocol Summary: PPARg-bla cells were dispensed at 3000 cells/5uL/well in 1536-well black wall/clear bottom plates using a Multidrop Combi (Thermo Fisher Scientific, Waltham, MA) dispenser. […] The assay plates were incubated at room temperature for 1 h and fluorescence intensity was measured by an Envision plate reader (PerkinElmer, Shelton, CT). For cell viability readout that measures cytotoxicity, 4 ul/well of CellTiter-Glo reagent was added into the assay plates using a Flying Reagent Dispenser. After 30 min incubation at room temperature, the luminescence intensity in the plates was measured using a ViewLux plate reader (PerkinElmer).

[5] = qHTS assay for small molecule agonists of the antioxidant response element (ARE) signaling pathway (AID 743202; active means well fitted activation curve with a large enough effect in the signal ratio in the repeat runs, not every such curve was filed as active; the % refers to the signal ratio); conditions: HepG2 ARE-bla reporter, beta-lactamase FRET, 16 h; at 73.3 µM (top of the series)
Outline: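 Compounds delivered in DMSO to ARE-bla HepG2 cells (2,000 cells/well, pre-incubated 5 h) and left 16 h at 37 C. LiveBLAzer B/G FRET substrate then added for 2 h at RT before fluorescence reading.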

[6] = qHTS assay for small molecule agonists of the antioxidant response element (ARE) signaling pathway - cell viability counter screen (AID 743203; calls by dose curve; further: nearly all actives have a fitted effect of over 55% in size); conditions: ARE-bla HepG2 viability, CellTiter-Glo luminescence, 16 h; at 73.3 µM (top of the series)
Outline: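 CellSensor ARE-bla HepG2 cells, 2,000 per well, rested 5 hrs at 37C/5% CO2, then exposed to compound in DMSO for 16 hrs; viability read as CellTiter-Glo luminescence after 30 min at room temperature, in the reporter wells.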

[7] = qHTS assay for small molecule activators of the heat shock response signaling pathway - cell viability counter screen (AID 743209); conditions: HSE-bla HeLa viability, CellTiter-Glo luminescence, 5 h; at 81.1 µM (top of the series) unless noted; further: nearly all actives have a fitted effect of over 50% in size
Outline: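 CellSensor HSE-bla HeLa cells, plated overnight at 37 C/5% CO2, were exposed to compounds in DMSO for 5 h at 37 C. Viability was then read in the same wells by CellTiter-Glo luminescence after 30 min at room temperature.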

[8] = qHTS assay for small molecule activators of the heat shock response signaling pathway (AID 743210; active means well fitted activation curve with a large enough effect in the signal ratio in the repeat runs, with a control signal flat, not every such curve was filed as active; the % refers to the signal ratio;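 further: HeLa cells with beta-lactamase reporter driven by heat shock elements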); conditions: HeLa HSE-bla reporter, beta-lactamase ratio, 5 h; at 81.1 µM (top of the series) unless noted
Outline: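 Reporter gene assay: HeLa cells stably bearing an HSE-bla construct, compound treatment 5 h at 37 C, LiveBLAzer substrate 2.5 h at RT, fluorescence intensity.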

[9] = qHTS assay to identify small molecule agonists of the peroxisome proliferator-activated receptor delta (PPARd) signaling pathway - cell viability counter screen (AID 743211); conditions: PPARd-bla HEK293H viability, CellTiter-Glo luminescence, 17 h; at 81.1 µM (top of the series) unless noted; further: nearly all actives have a fitted effect of over 55% in size
Outline: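 Luminescent ATP viability assay (CellTiter-Glo, 30 min RT) in UAS-bla HEK293H cells carrying the PPAR delta reporter construct, 3000 cells/well, after a 17 h compound treatment at 37 C.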

[10] = target: Peroxisome proliferator-activated receptor delta (Homo sapiens) (UniProt Q03181); test: qHTS assay to identify small molecule agonists of the peroxisome proliferator-activated receptor delta (PPARd) signaling pathway (AID 743212; calls by dose curve); conditions: HEK293H PPARd-UAS-bla, beta-lactamase FRET ratio, 17 h; at 81.1 µM (top of the series) unless noted
Outline: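 A PPARd-bla HEK293H line with beta-lactamase under an Upstream Activator Sequence is treated with compounds at 37 C. Substrate loading for 2 h at room temperature precedes the fluorescence measurement.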
On the % scale 0 is the no-effect control and ±100 the full control effect.

CCC(=O)N(c1ccccc1)C1(COC)CCN(CCn2nnn(CC)c2=O)CC1
inactive: viability change, negative = cytotoxic [1] -2.51% | activation [2] -4.35% | ratio activity, negative = inhibition [3] 4.05% | activity change, negative = cytotoxicity [4] 2.19% | activation [5] 5.82% | viability change, negative = cytotoxic [6] 11.1% | activity change, negative = cytotoxicity [7] -8.2% | activation [8] -0.117% | activity change, negative = cytotoxicity [9] -2.81% | activation [10] -1.16%

O=[N+]([O-])C(Cl)(Cl)Cl
inactive: viability change, negative = cytotoxic [1] 3.86% | activation [2] 2.55% | activity change, negative = cytotoxicity [4] 14.4% [at 62.6 µM] | activation [5] -7.92% | viability change, negative = cytotoxic [6] -5.18% | activity change, negative = cytotoxicity [7] 14.2% [at 62.6 µM] | activation [8] -0.765% [at 62.6 µM] | activity change, negative = cytotoxicity [9] 4.46% [at 62.6 µM] | activation [10] 0.364% [at 62.6 µM]

CCC(=O)N(c1ccccc1)C1(COC)CCN(CCc2cccs2)CC1
inactive: activity change, negative = cytotoxicity [4] -7.06% | viability change, negative = cytotoxic [6] -3.58% | activity change, negative = cytotoxicity [7] -1.25% | activation [8] -1.78% | activation [10] 7.57%

CCC(=O)N(c1ccccc1)C1CCN(CCc2ccccc2)CC1
inactive: viability change, negative = cytotoxic [1] -14.3% | activation [2] -5.16%
